Consider 1 compound from ChEMBL document CHEMBL5506027, “Discovery of a Novel and Potent Cyclin-Dependent Kinase 8/19 (CDK8/19) Inhibitor for the Treatment of Cancer” (J Med Chem, 2024).

Assay [1] is described as follows: Selectivity ratio of IC50 for CDK2/CyclinA2 (unknown origin) to IC50 for CDK8/Cyclin C (unknown origin).
The nature of assay [2]: Selectivity ratio of IC50 for CDK5/p35NCK (unknown origin) to IC50 for CDK8/Cyclin C (unknown origin).
Assay [3] in a line: Selectivity ratio of IC50 for CDK1/CyclinA2 (unknown origin) to IC50 for CDK8/Cyclin C (unknown origin).
A short description of assay [4]: Selectivity ratio of IC50 for CDK2/CyclinE1 (unknown origin) to IC50 for CDK8/Cyclin C (unknown origin).
Assay [5] in a line: Selectivity ratio of IC50 for CDK7/CyclinH/MAT1 (unknown origin) to IC50 for CDK8/Cyclin C (unknown origin).
Assay [6] can be described thus: Selectivity ratio of IC50 for CDK5/p25NCK (unknown origin) to IC50 for CDK8/Cyclin C (unknown origin).

In the case of `FC(F)c1c(Br)c(Br)cc2c1nc(N1CCNCC1)n2C1CCOCC1`, the Ratio IC50 in assay [1] worked out at 5.7; in assay [2], 25.8; in assay [3], 31.5; in assay [4], 4.2; in assay [5], 26.3; in assay [6], 11.7.
